# According to patent US9289478B2, “Formulations of tumour-associated peptides binding to human leukocyte antigen (HLA) class I or class II molecules for vaccine” (IMMATICS BIOTECHNOLOGIES GMBH, priority 2008, dated 2016):
# Experiment: HPLC-assay for in-use stability after reconstitution with 4.2% sodium hydrogen carbonate solution (Example 2, peptides SEQ ID NO 1-10)
# Type: physicochemical
# Method: Resolubilization procedure: For clinical trials the above described formulation is dissolved in 700 μl sodium hydrogen carbonate (4.2%). Remove plastic cap from one vial. Unpack and remove sodium hydrogen carbonate (4.2%) from the refrigerator at least 30 min before resolubilization to bring them up to room temperature before injection. Prepare syringe and needle for reconstitution. Use aseptic technique to take 700 μL of diluent for reconstitution of the lyophilisate. To dissolve the lyophilisate, the vial and the diluent shall be shaken vigorously for 1 minute, check whether solution is clear, otherwise continue shaking for another minute until the solution is clear. 10 to 30 minutes after GM-CSF injection, use a new syringe to administer 500 μL reconstituted formulation i.d. at the same site. Administration has to occur within 1 h after reconstitution. Dissolved lyophilisate may be stored aseptically at room temperature for up to 1 hour following reconstitution.
# However, a decrease of two specific peptides, i.e. IMA-CCN-001 and IMA-RGS-001 took place (see Table 6). As these peptides contain a cysteine residue, time-depending dimerization takes place.
# Identity, purity and peptide content are determined by analytical RP-HPLC chromatography. Detection wavelength was 220 nm.
sequence,measurement,setting,value
STAPPVHNV [MUC-001],"in-use stability, peptide by HPLC-assay","+mannitol/lutrol, 1 h after reconstitution",99.8%
same,"in-use stability, peptide by HPLC-assay","+mannitol/lutrol, 2 h after reconstitution",99.6%
same,"in-use stability, peptide by HPLC-assay","+mannitol/lutrol, 3 h after reconstitution",100.6%
same,"in-use stability, peptide by HPLC-assay","+mannitol/lutrol, 4 h after reconstitution",100.6%
same,"in-use stability, peptide by HPLC-assay","+mannitol/lutrol, 5 h after reconstitution",99.5%
same,"in-use stability, peptide by HPLC-assay","+mannitol/lutrol, 6 h after reconstitution",101.3%
same,"in-use stability, peptide by HPLC-assay","+mannitol/lutrol, Initial (starting value set to 100%)",100.0%
same,"in-use stability, peptide by HPLC-assay","no excipients, 1 h after reconstitution",100.8%
same,"in-use stability, peptide by HPLC-assay","no excipients, 2 h after reconstitution",99.2%
same,"in-use stability, peptide by HPLC-assay","no excipients, 3 h after reconstitution",96.6%
same,"in-use stability, peptide by HPLC-assay","no excipients, Initial (starting value set to 100%)",100.0%
